“Also recorded” adds a separate entry of the source.
Legend:
[1] = test system: HCC-1954 cells; experiment: Tumor cell proliferation, CellTiter Glo, HCC1954; assay type: cell-based, human; settings: HCC-1954, 48-96 h; read-out: Inhibition effects on tumor cell proliferation (IC50)
Procedure: (§1) To study the selective inhibition of a candidate ADC on tumor cells (e.g. ErbB2/Her2 high expressing tumor cells), the following assays were used to determine the cytotoxicity or proliferation inhibition of candidate ADCs: the mammalian tumor cells with tumor-associated antigen or receptor protein (e.g. breast cancer cells with high or low ErbB2/Her2 expression) were incubated with the candidate ADC for about 12-120 h, the Cell Titer Glo method was used to determine the cell viability.
(§2) 1) ErbB2/Her2 low expressing human breast cancer cells MCF-7, MDA-MB-468, ErbB2/Her2 high expressing human breast cancer cells BT-474, SK-BR-3, HCC1954, human ovarian cancer cells SK-OV-3, human gastric cancer cell NCI-N87 was seeded into a 96-well plate at 100 μl/well (containing 1000 to 10000 cells), and incubated in a cell culture incubator overnight (37° C., 5% CO2, 95% air, 100% humidity).
(§3) 3) The cell plate was removed from the incubator, equilibrated for about 30 minutes to room temperature. Each well was added 100 μl CellTiter Glo reagent, shocked in an oscillator for 2 min, then left stand for 10 min at room temperature in dark, the relative light units (RLU) is measured with a BioTech Gen5 microplate reader.

[2] = test system: BT-474 cells; experiment: Tumor cell proliferation, CellTiter Glo, BT-474; assay type: cell-based, human; settings: BT-474, 48-96 h; read-out: Inhibition effects on tumor cell proliferation (IC50)
Procedure: as §1, §2, §3

[3] = Single injection acute toxicity study in rats; assay type: in vivo, SD rats
Procedure: The acute toxicity of the candidate ADC was evaluated in rats. Female Sprague-Dawley rats were injected with high doses (60 mg/kg or more) of ADCs, and impact of drugs on the animals was then observed and analyzed, and index such as body weight, clinical signs, hematology, clinical biochemistry and histopathology were studied to evaluate the toxicity of the candidate ADC.
The drug was administered by a single injection via tail vein. The administration dose is 10 ml/kg, and the administration rate is about 1 ml/min. During the experiment, the animals were subjected to clinical inspection, and were examined for body weight, food intake, blood count, blood biochemical indices. At the end of the experiment, all animals were euthanized, anatomized and checked systematically. All major organs were weighed, organ coefficient was calculated and any visible lesions were recorded.

[4] = test system: SK-BR-3 cells; experiment: Tumor cell proliferation, CellTiter Glo, SK-BR-3; assay type: cell-based, human; settings: SK-BR-3, 48-96 h; read-out: Inhibition effects on tumor cell proliferation (IC50)
Procedure: as §1, §2, §3

[5] = test system: NCI-N87 cells; experiment: Tumor cell proliferation, CellTiter Glo, NCI-N87; assay type: cell-based, human; settings: NCI-N87, 48-96 h; read-out: Inhibition effects on tumor cell proliferation (IC50)
Procedure: as §1, §2, §3

[6] = test system: SK-OV-3 cells; experiment: Tumor cell proliferation, CellTiter Glo, SK-OV-3; assay type: cell-based, human; settings: SK-OV-3, 48-96 h; read-out: Inhibition effects on tumor cell proliferation (IC50)
Procedure: as §1, §2, §3

## GQ1001
[1]
  IC50: 0.149 nM
[2]
  IC50: 0.41 nM
[3]; GQ1001 6 and 60 mg/kg
  hematology and clinical biochemical analysis: toxic reaction: no significant toxic reaction
[3]; each GQ1001 dose group (6, 60 mg/kg)
  systematic anatomy and gross observation: no abnormal changes
[3]; equivalent doses of 60 mg/kg, 60 mg/kg
  acute toxicity compared with Kadcyla: significantly less than Kadcyla; also recorded: significantly lower than that of Kadcyla
[3]; female SD rats, single tail vein injection, GQ1001 6 and 60 mg/kg
  clinical abnormality: no clinical abnormality
[3]; single tail vein injection, GQ1001 6 and 60 mg/kg, Kadcyla 60 mg/kg
  ALT and AST level compared with vehicle control: no significant change
[3]; single tail vein injection, GQ1001 6 and 60 mg/kg, Kadcyla 60 mg/kg (D2-D12)
  body weight change compared with vehicle control: no significant difference; also recorded: no change in body weight
[4]
  IC50: 0.14 nM
[5]
  IC50: 0.113 nM
[6]
  IC50: 0.144 nM

Source: patent publication US11911434B2, “Stable antibody-drug conjugate, preparation method therefor, and use thereof” (GENEQUANTUM HEALTHCARE (SUZHOU) CO., LTD., priority 2014, dated 2024)
